According to PMC10997663, “Mechano-sensitivity of β2-adrenoceptors enhances constitutive activation of cAMP generation that is inhibited by inverse agonists” (Communications Biology, 2024):
Structures can show the parent of a compound that is named as a salt. Where two headings read alike, the source gives them in different places.

Key:
β2-adrenoceptor (β2AR) [1] = assay: cells; parameters: species or system HEK293G overexpressing TS-SNAP-β2AR; GloSensor cAMP luminescence; inverse agonist inhibition of the peak basal (mechanically stimulated) response; conditions: for activity at 10 µM: HEK293G, read-out: % of control remaining
β2-adrenoceptor (β2AR) [2] = assay: cells; parameters: species or system HEK293G overexpressing TS-SNAP-β2AR; GloSensor cAMP luminescence; inverse agonist inhibition of the peak basal (mechanically stimulated) response; conditions: for activity at 10 µM: HEK293G, read-out: % of control remaining; remark: listed apart in the source

Compound | % of control remaining (β2-adrenoceptor (β2AR) [1]; added at time zero, 10 µM, inhibitor) | % of control remaining (β2-adrenoceptor (β2AR) [2]; 30 min preincubation, 10 µM, inhibitor) | activity at 10 µM (β2-adrenoceptor (β2AR) [1]) | activity at 10 µM (β2-adrenoceptor (β2AR) [2])
Cc1ccc(OCC(O)C(C)NC(C)C)c2c1CCC2 (racemic) [ICI-118551, (±)-1-[2,3-(dihydro-7-methyl-1H-inden-4-yl)oxy]-3-[(1-methylethyl)amino]-2-butanol hydrochloride] | 25.14 ± 3.36% | 25.09 ± 3.66% |  | 
CC(C)NCC(O)COc1cccc2[nH]c3ccccc3c12 (stereo not drawn) [carazolol] |  |  | 40.6 ± 2.84% | 42 ± 7.68%
CC(C)NCC(O)COc1cccc2ccccc12 (stereo not drawn) [propranolol] |  |  | 39 ± 5.81% | 58.5 ± 9.88%
